Data: patent publication US9200046B2, “Reporter system for high throughput screening of compounds and uses thereof” (priority 2011, dated 2015)

Amino acid sequences for entries named in this document (tags omitted).
UniProt Q14145, whole entry: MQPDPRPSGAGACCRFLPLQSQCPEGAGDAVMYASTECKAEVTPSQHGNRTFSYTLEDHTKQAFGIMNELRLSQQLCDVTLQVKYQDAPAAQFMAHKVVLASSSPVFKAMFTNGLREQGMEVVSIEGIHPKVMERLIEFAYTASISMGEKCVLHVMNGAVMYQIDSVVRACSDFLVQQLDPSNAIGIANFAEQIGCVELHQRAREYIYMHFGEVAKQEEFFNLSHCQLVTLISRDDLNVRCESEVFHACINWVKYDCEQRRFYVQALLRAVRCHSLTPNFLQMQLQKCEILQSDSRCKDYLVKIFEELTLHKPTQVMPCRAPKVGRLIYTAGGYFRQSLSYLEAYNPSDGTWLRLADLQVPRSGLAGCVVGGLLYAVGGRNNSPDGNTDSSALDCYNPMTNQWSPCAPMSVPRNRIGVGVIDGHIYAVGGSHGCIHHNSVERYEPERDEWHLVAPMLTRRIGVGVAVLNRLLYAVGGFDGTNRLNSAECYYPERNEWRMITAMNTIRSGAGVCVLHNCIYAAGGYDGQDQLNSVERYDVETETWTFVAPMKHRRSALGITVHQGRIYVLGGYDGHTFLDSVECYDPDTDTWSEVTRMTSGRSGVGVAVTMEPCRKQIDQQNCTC

Biological target: Nrf2-Keap1 complex (Homo sapiens, UniProt Q14145)

COc1cc([C@@H]2c3cc4c(cc3[C@@H](O)[C@H]3COC(=O)[C@H]23)OCO4)cc(OC)c1O [4′-DEMETHYLEPIPODOPHYLLOTOXIN]
Activation 100 nL: 185% | Activation 200 nL: 165%
